This passage reports IC50 results from patent US10464925B2.

Read-outs that look alike come from different tables or passages of the source.

For test [1], the target named is BRD4 (Homo sapiens, UniProt O60885). Briefly: BRD4 AlphaScreen. Conditions: IC50 (nM) BRD4. In general terms: Alpha assays give light when donor and acceptor beads are brought close together.
For test [2], the target named is CRBN-DDB1 (Homo sapiens, UniProt Q96SW2). In words: CRBN-DDB1 Ligand-Displacement AlphaScreen Assay (thalidomide competition).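 Further: streptavidin donor and nickel chelate acceptor bead proximity signal after 30 min incubation, normalized with no-protein background as 0% and DMSO wells as 100% activity.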

Take `Cc1sc2c(c1C)C(c1ccc(Cl)cc1)=N[C@@H](CC(=O)NCCNC(=O)COc1cccc3c1C(=O)N(C1CCC(=O)NC1=O)C3=O)c1nnc(C)n1-2` (some centres unmarked) [dBET3]: the IC50 (commonly the midpoint of a concentration-inhibition curve) was 32 nM in test [1] and 10.4 nM in test [2] (biotin-thalidomide competition).
Regarding `Cc1sc2c(c1C)C(c1ccc(Cl)cc1)=N[C@@H](CC(=O)NCCCCCCNC(=O)COc1cccc3c1C(=O)N(C1CCC(=O)NC1=O)C3=O)c1nnc(C)n1-2` (some centres unmarked) [dBET5], the IC50 in test [1] is 33 nM; in test [2] (biotin-thalidomide competition) it was 217 nM.
With `CC[C@@H]1C(=O)N(C)c2cnc(Nc3ccc(C(=O)NCCCCCCNC(=O)COc4cccc5c4C(=O)N(C4CCC(=O)NC4=O)C5=O)cc3OC)nc2N1C1CCCC1` (some centres unmarked) [dBET7], in test [1], inhibition was half-maximal at 161 nM (IC50).
`Cc1sc2c(c1C)C(c1ccc(Cl)cc1)=N[C@@H](CC(=O)NCCCOCCOCCOCCCNC(=O)COc1cccc3c1C(=O)N(C1CCC(=O)NC1=O)C3=O)c1nnc(C)n1-2` (some centres unmarked) [dBET9]: in test [2] (biotin-thalidomide competition), the IC50 stood at 14.8 nM.
As for `Cc1sc2c(c1C)C(c1ccc(Cl)cc1)=N[C@@H](CC(=O)NCCCCCCNC(=O)c1ccc3c(c1)C(=O)N(C1CCC(=O)NC1=O)C3=O)c1nnc(C)n1-2` (some centres unmarked) [dBET15], the IC50 was 31 nM in test [1] and 40.4 nM in test [2].
